Results as given in patent US9216971B2 (priority 2007, dated 2015).

By UniProt entry, the sequences of proteins in these tests, tags left out.
UniProt P20309, whole entry, looked up: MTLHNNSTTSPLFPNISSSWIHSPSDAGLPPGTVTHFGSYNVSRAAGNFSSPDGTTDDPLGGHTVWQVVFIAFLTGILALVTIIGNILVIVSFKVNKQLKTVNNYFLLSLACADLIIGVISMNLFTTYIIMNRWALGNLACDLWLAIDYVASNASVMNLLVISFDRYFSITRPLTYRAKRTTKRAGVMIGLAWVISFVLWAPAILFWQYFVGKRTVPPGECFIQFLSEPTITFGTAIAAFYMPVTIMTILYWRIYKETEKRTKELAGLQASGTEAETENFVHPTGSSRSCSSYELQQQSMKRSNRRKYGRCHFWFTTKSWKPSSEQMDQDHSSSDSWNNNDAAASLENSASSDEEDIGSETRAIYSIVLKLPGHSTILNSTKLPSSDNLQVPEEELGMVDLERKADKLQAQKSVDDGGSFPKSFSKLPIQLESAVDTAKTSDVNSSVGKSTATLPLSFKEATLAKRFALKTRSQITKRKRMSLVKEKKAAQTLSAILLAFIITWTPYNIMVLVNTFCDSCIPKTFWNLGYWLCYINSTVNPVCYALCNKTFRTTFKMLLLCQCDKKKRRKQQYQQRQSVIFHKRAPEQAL

Columns and labels:
[1] = target: hM3 muscarinic receptor subtype (Homo sapiens, UniProt P20309); assay: Radioligand binding assay, [3H]-NMS displacement; conditions: read-out: Ki for the M3 muscarinic receptor subtype (hM3 Ki); CHO cell membranes, [3H]-NMS at 1 nM, measured at 6 hours, 37° C.
MCh response = assay: Rat Einthoven assay (bronchoprotection); conditions: inhalation, 100 μg dose, measured at 24 hours

| Structure (SMILES) | Ki [1] [nM] | % inhibition of MCh response relative to control animals (MCh response) [%] |
| --- | --- | --- |
| C[N+](C)(CCc1ccc(O)cc1)C1CCN(C(=O)C(O)(c2ccccc2)C2CCCC2)CC1 (stereo not drawn) | 0.74 | 76 |
| CN(CCc1ccc(O)cc1)C1CCN(C(=O)C(O)(c2ccccc2)C2CCCC2)CC1 (stereo not drawn) | 0.38 | −18 |
| O=C(N1CCC(NCCc2ccc(O)cc2)CC1)C(O)(c1ccccc1)C1CCCC1 (stereo not drawn) | 0.42 | −6 |
